Measured values as given in ChEMBL document CHEMBL3112399, “Discovery of pyrazolo[3,4-d]pyrimidine derivatives as GPR119 agonists” (Bioorg Med Chem Lett, 2014).

Tested on: HIT-T15
Test: Agonist activity at GPR119 receptor in hamster HIT-T15 cells assessed as intracellular cAMP level relative to AR-231,453
Type: cell-based
Conditions: Cricetinae

`CC(C)(C)OC(=O)N1CCC(n2ncc3c(Oc4ccccc4C#N)ncnc32)CC1` gave an Emax of 61%.
